These results are taken from patent US11628160B2, “Compositions and methods for treating brain injury” (Azevan Pharmaceuticals, Inc., priority 2017, dated 2023).

Sequences of proteins named here, by UniProt entry; tags and fusion partners are left off.
UniProt P37288, whole entry: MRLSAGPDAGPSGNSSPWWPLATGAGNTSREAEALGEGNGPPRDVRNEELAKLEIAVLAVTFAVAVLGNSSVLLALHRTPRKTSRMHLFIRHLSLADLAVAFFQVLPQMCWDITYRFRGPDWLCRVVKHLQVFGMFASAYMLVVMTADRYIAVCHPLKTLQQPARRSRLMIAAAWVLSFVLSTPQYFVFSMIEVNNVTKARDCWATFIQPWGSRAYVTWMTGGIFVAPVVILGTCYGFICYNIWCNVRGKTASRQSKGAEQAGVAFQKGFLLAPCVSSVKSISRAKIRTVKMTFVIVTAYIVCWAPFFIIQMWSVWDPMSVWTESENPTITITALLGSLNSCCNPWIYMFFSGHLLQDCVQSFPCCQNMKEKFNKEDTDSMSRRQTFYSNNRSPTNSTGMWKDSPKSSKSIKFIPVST

The assay addresses human V1a receptor (Homo sapiens, UniProt P37288). In words: Human vasopressin V1a receptor binding assay. The note with it: read-out: V1a Ki; hV1a CHO cell line, competition with 1 nM 3H-AVP.

For orientation: Ki means a measure of affinity in units of concentration, obtained from inhibition or displacement. As for `CN(Cc1cccc(C(F)(F)F)c1)C(=O)[C@@H](CC(=O)N1CCC(N2CCCCC2)CC1)N1C(=O)[C@@H](N2C(=O)OC[C@@H]2c2ccccc2)[C@H]1/C=C/c1ccccc1` [Example 225, 2(R)-[[4-(Piperidinyl)piperidinyl]carbonylmethyl]-2-[3(S)-(4(S)-phenyloxazolidin-2-on-3-yl)-4(R)-(2-styryl)azetidin-2-on-1-yl]acetic acid N-methyl-N-(3-trifluoromethylbenzyl)amide], the Ki was 1.36 nM.
